The text below walks through data of patent US10479814B2, “Adenosine receptor activation reagent and the uses of thereof” (Zhejiang Subtropical Crops Research Institute, priority 2014, dated 2019).

By UniProt entry, the sequences of proteins in these tests, tags left out. Where a name states a change or a piece, a line headed by the entry shows the natural chain unless it says otherwise.
UniProt P30543, whole entry: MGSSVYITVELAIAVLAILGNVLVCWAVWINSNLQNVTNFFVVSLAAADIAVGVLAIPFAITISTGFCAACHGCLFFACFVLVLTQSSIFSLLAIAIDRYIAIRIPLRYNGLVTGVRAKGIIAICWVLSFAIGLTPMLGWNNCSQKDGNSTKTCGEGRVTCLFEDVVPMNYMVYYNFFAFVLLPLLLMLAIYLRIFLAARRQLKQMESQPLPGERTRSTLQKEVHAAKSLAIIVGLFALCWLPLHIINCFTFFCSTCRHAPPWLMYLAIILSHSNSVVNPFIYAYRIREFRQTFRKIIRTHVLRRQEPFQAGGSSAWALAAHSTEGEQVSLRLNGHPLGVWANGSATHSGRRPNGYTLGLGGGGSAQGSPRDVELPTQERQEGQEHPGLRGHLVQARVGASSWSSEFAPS

“And” between values parts separate entries of the source, which are not always exact repeats. Equal entries are not always repeated.

This assay has as its target rat striatum adenosine A2A receptor (Rattus norvegicus, UniProt P30543). The assay is described as follows: adenosine A2A receptor ligand binding test ([3H]MSX-2).

For `C#CCn1c(=O)c2c(nc(/C=C/c3cccc(OC)c3)n2C)n(CCCO)c1=O`, where the note is “read-out: equilibrium dissociation constant Kd of A2A binding, saturation curve, Scatchard, tested as the radiolabelled form”, the Kd is 10.9 nM and 11.5 nM. For the same compound, the “Bmax of A2A binding” value (saturation curve, Scatchard, tested as the radiolabelled form) was 5235 fmol/mg and 5657 fmol/mg.
